System: mutant EZH2 DLBCL cell lines
Test: Apoptosis and differentiation in DLBCL cell lines
Type: cell-based
Conditions: cells with mutant EZH2

Structure (SMILES): CCN(c1cc(-c2ccc(CN3CCOCC3)cc2)cc(C(=O)NCc2c(C)cc(C)[nH]c2=O)c1C)C1CCOCC1 [tazemetostat]
- apoptosis following treatment: undergo apoptosis
